Biological target: human FLAP (Homo sapiens (Human), UniProt P20292)
Experiment: FLAP binding assay (HTRF)
Settings: human FLAP-containing membranes, HTRF format; average of two assay plates, duplicates; read-out: FLAP Binding wild type HTRF Ki
Experimental: The ability of the compounds of the present invention to treat a FLAP-mediated disease and/or disorder, or associated symptoms or complications thereof, was determined using the following procedures. Binding assay data represent the average value obtained from two different assay plates, with samples run in duplicate on each plate. Human whole blood assay data represent a single replicate on an assay plate using whole blood from at least one healthy donor.
Data are expressed as a HTRF ratio.

Protein sequences, listed by entry. Tags and fused reporters are not part of them. Lines headed by an entry give the natural chain unless they say otherwise; changes in a name come on top.
UniProt P20292: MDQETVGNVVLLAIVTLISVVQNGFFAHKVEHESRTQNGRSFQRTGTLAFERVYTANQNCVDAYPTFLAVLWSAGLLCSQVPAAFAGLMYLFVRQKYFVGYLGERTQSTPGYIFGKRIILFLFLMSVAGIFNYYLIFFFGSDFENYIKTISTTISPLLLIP

Compound | Ki [nM]
Nc1cnc(-c2ccc(C3CCC3)c(OCC(O)Cn3cccn3)c2F)cn1 (racemic) [Example 60, racemic 1-(3-(5-Aminopyrazin-2-yl)-6-cyclobutyl-2-fluorophenoxy)-3-(1H-pyrazol-1-yl)propan-2-ol] | 116
CC(C)(C)c1ccc(-c2cnc(N)cn2)c(F)c1Oc1cc(N)ncn1 [Example 202, 6-[3-(5-Aminopyrazin-2-yl)-6-tert-butyl-2-fluorophenoxy]pyrimidin-4-amine] | 6.1
CS(=O)(=O)c1cc(Cl)ccc1COc1c(C2CCC2)ccc(-c2cnc(N)cn2)c1F [Example 11, 5-(3-{[4-Chloro-2-(methylsulfonyl)benzyl]oxy}-4-cyclobutyl-2-fluorophenyl)pyrazin-2-amine] | 750
Nc1cnc(-c2ccc(C3CCC3)c(OCc3nc(C4CC4)no3)c2F)cn1 [Example 48, 5-{4-Cyclobutyl-3-[(3-cyclopropyl-1,2,4-oxadiazol-5-yl)methoxy]-2-fluorophenyl}pyrazin-2-amine] | 12
Nc1cnc(-c2ccc(C3CCC3)c(OCCCC(=O)O)c2F)cn1 [Example 251, 4-(3-(5-Aminopyrazin-2-yl)-6-cyclobutyl-2-fluorophenoxy)butanoic acid] | 1200
COc1c(C2CCC2)ccc(-c2cnc3c(c2)CCN3)c1F [Example 198, 5-(4-cyclobutyl-2-fluoro-3-methoxyphenyl)-2,3-dihydro-1H-pyrrolo[2,3-b]pyridine] | 18.7
Nc1cnc(-c2ccc(C3CCC3)c(Oc3cnc4cc(F)c(F)cc4n3)c2F)cn1 [Example 271, 5-{4-Cyclobutyl-3-[(6,7-difluoroquinoxalin-2-yl)oxy]-2-fluorophenyl}pyrazin-2-amine] | 5.1
Nc1cnc(-c2ccc(C3CCC3)c(Oc3nc4ncccc4s3)c2F)cn1 [Example 330, 5-(4-Cyclobutyl-2-fluoro-3-(thiazolo[4,5-b]pyridin-2-yloxy)phenyl)pyrazin-2-amine] | 5.1
NC(=O)c1ccc(Oc2c(C3CCC3)ccc(-c3cnc(N)cn3)c2F)cc1 [Example 155, 4-[3-(5-Aminopyrazin-2-yl)-6-cyclobutyl-2-fluorophenoxy]benzamide] | 4.1
Nc1cnc(-c2ccc(C3CCC3)c(OCc3cccc(Cl)c3Cl)c2F)cn1 [Example 39, 5-{4-Cyclobutyl-3-[(2,3-dichlorobenzyl)oxy]-2-fluorophenyl}pyrazin-2-amine] | 750
COc1cc(Oc2c(C3CCC3)ccc(-c3cnc4[nH]ccc4c3)c2F)ncn1 [Example 228, 5-(4-cyclobutyl-2-fluoro-3-((6-methoxypyrimidin-4-yl)oxy)phenyl)-1H-pyrrolo[2,3-b]pyridine] | 24.4
N#Cc1nc(-c2ccc(C3CCC3)c(O)c2F)cnc1N [Example 222, 3-amino-6-(4-cyclobutyl-2-fluoro-3-hydroxyphenyl)pyrazine-2-carbonitrile] | 180
CC(C)(C)OC(=O)N1CCC(COc2c(C3CCC3)ccc(-c3cnc(N)cn3)c2F)CC1 [Example 74, tert-Butyl 4-{[3-(5-aminopyrazin-2-yl)-6-cyclobutyl-2-fluorophenoxy]methyl}piperidine-1-carboxylate] | 750
Nc1cnc(-c2ccc(C3CCC3)c(OCC(O)CNc3ccn[nH]3)c2F)cn1 (racemic) [Example 67, racemic 1-((1H-Pyrazol-5-yl)amino)-3-(3-(5-aminopyrazin-2-yl)-6-cyclobutyl-2-fluorophenoxy)propan-2-ol] | 176
CS(=O)(=O)N1CCC(COc2c(C3CCC3)ccc(-c3cnc(N)cn3)c2F)CC1 [Example 68, 5-(4-Cyclobutyl-2-fluoro-3-{[1-(methylsulfonyl)piperidin-4-yl]methoxy}phenyl)pyrazin-2-amine] | 750
N#Cc1ccc(Oc2c(C3CCC3)ccc(-c3cnc(N)cn3)c2F)nc1 [Example 114, 6-[3-(5-Aminopyrazin-2-yl)-6-cyclobutyl-2-fluorophenoxy]pyridine-3-carbonitrile] | 17.2
CC(C)CNCC(O)COc1c(C2CCC2)ccc(-c2cnc(N)cn2)c1F (racemic) [Example 253, 1-(3-(5-aminopyrazin-2-yl)-6-cyclobutyl-2-fluorophenoxy)-3-(isobutylamino)-propan-2-ol] | 854
COc1c(C2CCC2)ccc(-c2cc3cc[nH]c3nn2)c1F [Example 197, 3-(4-cyclobutyl-2-fluoro-3-methoxyphenyl)-7H-pyrrolo[2,3-c]pyridazine] | 750
CS(=O)(=O)c1ccc(Oc2c(C3CCC3)ccc(-c3cnc(N)cn3)c2F)cc1 [Example 116, 5-{4-Cyclobutyl-2-fluoro-3-[4-(methylsulfonyl)phenoxy]phenyl}pyrazin-2-amine] | 14.6
CC(C)(C)OC(=O)N1CCC(COc2c(C3CCC3)ccc(-c3cnc(N)cn3)c2F)C1 (stereo not shown) [Example 247, tert-butyl 3-((3-(5-aminopyrazin-2-yl)-6-cyclobutyl-2-fluoro-phenoxy)methyl)pyrrolidine-1-carboxylate] | 259
Nc1cnc(-c2ccc(C3CCC3)c(OCc3ccccc3OC(F)(F)F)c2F)cn1 [Example 8, 5-(4-Cyclobutyl-2-fluoro-3-{[2-(trifluoromethoxy)benzyl]oxy}phenyl)-pyrazin-2-amine] | 750
N#Cc1cnn(CC(O)COc2c(C3CCC3)ccc(-c3cnc(N)cn3)c2F)c1N (racemic) [Example 65, racemic 5-Amino-1-(3-(3-(5-aminopyrazin-2-yl)-6-cyclobutyl-2-fluorophenoxy)-2-hydroxypropyl)-1H-pyrazole-4-carbonitrile] | 18

— patent US9073876B2, “Flap modulators” (JANSSEN PHARMACEUTICA NV, priority 2013, dated 2015)
